Each structure is given as a SMILES string. Calls of active or inactive are those of the source. No rule for the calls is given here.

By UniProt entry, the sequences of proteins in these tests, tags left out.
UniProt O43613, whole entry: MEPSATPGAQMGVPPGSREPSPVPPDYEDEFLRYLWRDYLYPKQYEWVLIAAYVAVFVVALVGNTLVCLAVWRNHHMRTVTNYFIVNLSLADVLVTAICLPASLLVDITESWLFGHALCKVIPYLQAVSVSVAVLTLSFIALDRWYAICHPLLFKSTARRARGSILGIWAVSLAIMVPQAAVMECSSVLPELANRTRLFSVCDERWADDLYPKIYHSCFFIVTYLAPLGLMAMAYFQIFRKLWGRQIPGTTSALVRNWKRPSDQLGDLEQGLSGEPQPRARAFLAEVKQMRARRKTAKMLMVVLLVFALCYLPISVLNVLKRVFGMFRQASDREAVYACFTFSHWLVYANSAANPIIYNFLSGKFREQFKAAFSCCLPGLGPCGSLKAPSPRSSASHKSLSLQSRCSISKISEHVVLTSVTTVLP

In this assay the target is Orexin/Hypocretin receptor type 1 (Homo sapiens, UniProt O43613). Description: Displacement of [3H]-[…] from human orexin 1 receptor expressed in CHO cells incubated for 2 hrs by whole cell radioligand binding assay. In kind it is cell-based. (Loss of bound radioactivity is the signal in a displacement assay; it reports binding, not function.)
Turning to `COc1cccc(CN2CC3(CCN(Cc4nccs4)CC3)CC2=O)c1`, the pKi result was “inactive”.
Turning to `O=C(Cc1ccc(Cl)cc1)N1CCC(c2noc(-c3ccccn3)n2)CC1`, the pKi entry is “inactive”.
As to `CN(Cc1[nH]cc[n+]1Cc1ccccc1)C(=O)c1cccc2cc[nH][n+]12`, the pKi entry was “inactive”.
`CCC(=O)N1CCCN([C@@H](C)C(=O)Nc2ccccc2C(C)=O)CC1`: the pKi entry was “inactive”.
`CN(C)S(=O)(=O)c1cccc(C(=O)N(CCc2ccccc2)c2nc3ccccc3s2)c1`: the pKi entry was “inactive”.
As to `CN(Cc1[nH]cc[n+]1C)C(=O)CCCc1c[nH]c2ccccc12`, the pKi entry is “inactive”.
Turning to `O=C1c2ccccc2C(=O)N1CCc1nc(-c2cnccn2)no1`, the pKi result is “inactive”.
For the compound `Cc1ccc(C(=O)N2CCN(Cc3nnc(-c4ccco4)o3)CC2)cc1F`, the pKi entry is “inactive”.
Turning to `Cc1nc(-c2ncccn2)sc1C(=O)OCCn1c(C)nc2ccccc21`, the pKi entry was “inactive”.

(Values after ChEMBL document CHEMBL4725416, “Structure-Based Discovery of Novel Ligands for the Orexin 2 Receptor” (J Med Chem, 2020).)
